Measured values taken from patent US5272268A, “Dipeptide derivatives” (Shionogi & Co., Ltd., priority 1990, dated 1993).

The chains behind the UniProt entries cited, without tags or fusion partners. Residues count along the entry.
UniProt P00797, 67-406 limits assumed: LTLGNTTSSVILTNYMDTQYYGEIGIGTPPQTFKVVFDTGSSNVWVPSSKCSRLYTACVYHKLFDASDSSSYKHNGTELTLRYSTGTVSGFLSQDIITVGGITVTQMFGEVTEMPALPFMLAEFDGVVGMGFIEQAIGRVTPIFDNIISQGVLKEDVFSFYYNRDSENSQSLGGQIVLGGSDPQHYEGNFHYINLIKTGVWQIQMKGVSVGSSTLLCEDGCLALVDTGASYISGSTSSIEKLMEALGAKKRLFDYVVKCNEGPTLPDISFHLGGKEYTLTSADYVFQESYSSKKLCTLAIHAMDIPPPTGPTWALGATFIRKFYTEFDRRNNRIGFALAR
UniProt Q6DLS0, 67-406 limits assumed: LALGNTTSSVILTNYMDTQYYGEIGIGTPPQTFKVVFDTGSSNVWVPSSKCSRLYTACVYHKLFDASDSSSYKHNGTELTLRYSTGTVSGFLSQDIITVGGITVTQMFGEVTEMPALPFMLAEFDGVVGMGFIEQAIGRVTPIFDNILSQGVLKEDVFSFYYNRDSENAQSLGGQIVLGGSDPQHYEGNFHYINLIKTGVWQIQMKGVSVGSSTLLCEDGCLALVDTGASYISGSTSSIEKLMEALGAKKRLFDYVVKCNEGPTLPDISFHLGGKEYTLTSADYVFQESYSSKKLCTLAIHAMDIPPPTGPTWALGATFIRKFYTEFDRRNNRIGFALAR

Experiments:
[1] = biological target: intrinsic renin contained in the renatured human plasma (Homo sapiens, UniProt P00797); assay: Renin inhibition in vitro (angiotensin I production in renatured human plasma, RIA)
Protocol: Commercially available lyophilized human plasma (Ortho, Bi-Level Plasma Renin Control) was renatured by dissolving in water. Angiotensinogen was allowed to react with intrinsic renin contained in the renatured plasma to generate angiotensin I (AI), which was quantitatively measured with radioimmunoassay (RIA). Thus, potency of the plasma renin was determined on the basis of the AI production. For this purpose, Renin RIA kit (RENIN' RIABEAD®) manufacture by Dinabott was used. All of the reagents necessary for the measurement of the AI production were available from the attachment of the kit, and the measurement was conducted according to the manufacturer's direction.
To the plasma (0.2 ml) were added all of the reagents, and the mixture was combined with either of sample solutions (0.002 ml) of various concentrations which had been prepared by dissolving a test compound in different amount of ethanol. Ethanol (0.002 ml) containing no test compound was used as a control solution. The amount of AI produced was measured after 60 minutes incubation. Renin inhibition potency of test compound was determined by comparing the amount of AI produced by a sample solution with that produced by a control solution.

Plasma renin activity = Plasma renin activity (Macaca fascicularis, UniProt Q6DLS0); assay: Renin inhibition in vivo (plasma renin activity after oral administration to hyperrenin monkeys); settings: 15 mg/kg orally, low sodium diet + furosemide; for Renin inhibition potency, 4 h: 4 h after administration; for Renin inhibition potency, 6 h: 6 h after administration; for Renin inhibition potency, 8 h: 8 h after administration; for Renin inhibition potency, 24 h: 24 h after administration
Protocol: Crab-eating monkeys (Cynomolgus monkeys) (2.8-5.0 kg) were fed on low sodium diet (Na 7.15 mg/100 g feed) for six days, during which the monkeys intramuscularly received furosemide (2 mg/kg body weight) every other day from the second day of the experiment, in order to make the monkeys hyperrenin condition.
After seven days from the low sodium feeding, the monkeys were restrained on a monkey chair. Compounds to be tested are dissolved in 0.1 M citric acid/physiological saline or suspended in water with addition of β-cyclodextrin, and orally administered to the monkeys using a stomach probe (15 mg/kg body weight). […] For the blood collection, an injection syringe containing 30 μl of 6% aqueous EDTA·2Na solution was used. The collected blood was transferred into a test tube and centrifuged (3000 rpm, 10 minutes) at 4° C., and the resultant supernatant was used to determine the renin content. Plasma renin activity (AI(ng)/ml/h value) was measured using Radioimmunoassy kit commercially available from Dinabott Co. in the same manner as in the foregoing in vitro test. Renin inhibition potencies of the compounds tested, which were expressed as a percentage of renin activity relative to the activity before the administration, are listed in Table 12.

conscious monkey = assay: Vasodepressor activity, direct technique, conscious monkey
Protocol: Vasodepressor activity of the compounds of the invention was also measured with direct technique using an conscious monkey, where a monkey was administered a compound of the invention orally or intravenously (a solution in Tween 20).

[2] = read-out: IC50 (concentration which inhibits renin activity by 50%), 60 minutes incubation
[3] = tested form: 0.5H2O, 0.25CH2Cl2

Row | Structure (SMILES) | IC50 [1, 2] | Renin inhibition potency, Max (Plasma renin activity) | Renin inhibition potency, Mean (Plasma renin activity) | Renin inhibition potency, 4 h (Plasma renin activity) | Renin inhibition potency, 6 h (Plasma renin activity) | Renin inhibition potency, 8 h (Plasma renin activity) | Renin inhibition potency, 24 h (Plasma renin activity) | further results
1 | O=C(CN1CCOCC1)N[C@@H](Cc1cccc2ccccc12)C(=O)N[C@@H](Cc1cscn1)C(=O)N[C@@H](CC1CCCCC1)[C@@H](O)CC(=O)c1cccc(OCCN2CCOCC2)c1 | – | – | – | – | – | – | – | IC50 ([1]; read-out: IC50 (concentration which inhibits renin activity by 50%), 60 minutes incubation, tested form: 3/2H2O): 2.34 nM; Renin inhibition potency, 4 h (Plasma renin activity; tested form: 3/2H2O): 78%; Renin inhibition potency, 6 h (Plasma renin activity; tested form: 3/2H2O): 72%; Renin inhibition potency, 8 h (Plasma renin activity; tested form: 3/2H2O): 51%; Renin inhibition potency, 24 h (Plasma renin activity; tested form: 3/2H2O): 12%; Renin inhibition potency, Max (Plasma renin activity; tested form: 3/2H2O): 92%; Renin inhibition potency, Mean (Plasma renin activity; tested form: 3/2H2O): 84%
2 | O=C(C[C@H](O)[C@H](CC1CCCCC1)NC(=O)[C@H](Cc1cscn1)NC(=O)[C@H](Cc1ccccc1)NS(=O)(=O)N1CCOCC1)c1ccncc1 | 0.51 nM | 98% | 86% | 95% | 83% | 70% | 11% | Maximum reduced BP (conscious monkey; i.v., 0.3 mg/kg): 5 -ΔmmHg; Maximum reduced BP (conscious monkey; i.v., 1 mg/kg): 20 -ΔmmHg; Maximum reduced BP (conscious monkey; p.o., 10 mg/kg): 5 -ΔmmHg; Maximum reduced BP (conscious monkey; p.o., 30 mg/kg): 10 -ΔmmHg; Maximum reduced BP (conscious monkey; p.o., 100 mg/kg): 35 -ΔmmHg
3 | O=C(N[C@@H](CC1CCCCC1)[C@@H](O)CNS(=O)(=O)c1cccnc1)[C@H](Cc1cscn1)NC(=O)[C@H](Cc1ccccc1)NS(=O)(=O)N1CCOCC1 | – | – | – | – | – | – | – | IC50 ([1]; read-out: IC50 (concentration which inhibits renin activity by 50%), 60 minutes incubation, tested form: 0.5H2O, 0.25CH2Cl2): 0.19 nM; Renin inhibition potency, 4 h (Plasma renin activity; [3]): 82%; Renin inhibition potency, 8 h (Plasma renin activity; [3]): 67%; Renin inhibition potency, Max (Plasma renin activity; [3]): 83%; Renin inhibition potency, Mean (Plasma renin activity; [3]): 71%
4 | O=C(C[C@H](O)[C@H](CC1CCCCC1)NC(=O)[C@H](Cc1cscn1)NC(=O)[C@@H](CC(=O)N1CCOCC1)Cc1cccc2ccccc12)c1cccc(OCCN2CCOCC2)c1 | – | – | – | – | – | – | – | IC50 ([1]; read-out: IC50 (concentration which inhibits renin activity by 50%), 60 minutes incubation, tested form: 3/4H2O): 4.51 nM; Renin inhibition potency, 4 h (Plasma renin activity; tested form: 3/4H2O): 35%; Renin inhibition potency, 6 h (Plasma renin activity; tested form: 3/4H2O): 0%; Renin inhibition potency, 8 h (Plasma renin activity; tested form: 3/4H2O): 0%; Renin inhibition potency, 24 h (Plasma renin activity; tested form: 3/4H2O): 0%; Renin inhibition potency, Max (Plasma renin activity; tested form: 3/4H2O): 80%; Renin inhibition potency, Mean (Plasma renin activity; tested form: 3/4H2O): 48%
5 | CC(C)(C)S(=O)(=O)C[C@@H](Cc1ccccc1)C(=O)N[C@@H](Cc1cscn1)C(=O)N[C@@H](CC1CCCCC1)[C@@H](O)CC(=O)C1CCCCC1 | 1.32 nM | 83% | 71% | 69% | – | – | – | –
6 | CNc1cccc(C(=O)C[C@H](O)[C@H](CC2CCCCC2)NC(=O)[C@H](Cc2cscn2)NC(=O)[C@H](Cc2ccccc2)NS(=O)(=O)N2CCOCC2)c1 | – | – | – | – | – | – | – | IC50 ([1]; read-out: IC50 (concentration which inhibits renin activity by 50%), 60 minutes incubation, tested form: 2/3H2O, 2/5CH2Cl2): 0.52 nM; Renin inhibition potency, 4 h (Plasma renin activity; tested form: 2/3H2O, 2/5CH2Cl2): 97%; Renin inhibition potency, 6 h (Plasma renin activity; tested form: 2/3H2O, 2/5CH2Cl2): 89%; Renin inhibition potency, 8 h (Plasma renin activity; tested form: 2/3H2O, 2/5CH2Cl2): 83%; Renin inhibition potency, 24 h (Plasma renin activity; tested form: 2/3H2O, 2/5CH2Cl2): 53%; Renin inhibition potency, Max (Plasma renin activity; tested form: 2/3H2O, 2/5CH2Cl2): 97%; Renin inhibition potency, Mean (Plasma renin activity; tested form: 2/3H2O, 2/5CH2Cl2): 74%
7 | O=C(C[C@H](O)[C@H](CC1CCCCC1)NC(=O)[C@H](Cc1cscn1)NC(=O)[C@@H](CC(=O)N1CCOCC1)Cc1cccc2ccccc12)c1ccncc1 | 4.98 nM | 95% | 89% | 87% | 76% | 54% | 18% | –
8 | O=C(CN1CCOCC1)N[C@@H](Cc1ccccc1)C(=O)N[C@@H](Cc1cscn1)C(=O)N[C@@H](CC1CCCCC1)[C@@H](O)CC(=O)c1ccncc1 | 5.9 nM | 59% | 47% | 55% | 6% | 18% | 34% | –
9 | CN(C)S(=O)(=O)NC[C@H](O)[C@H](CC1CCCCC1)NC(=O)[C@H](Cc1cscn1)NC(=O)[C@H](Cc1ccccc1)CS(=O)(=O)C(C)(C)C | – | – | – | – | – | – | – | IC50 ([1]; read-out: IC50 (concentration which inhibits renin activity by 50%), 60 minutes incubation, tested form: 0.2H2O, 0.1iPr2O): 0.8 nM; Renin inhibition potency, 4 h (Plasma renin activity; tested form: 0.2H2O, 0.1iPr2O): 89%; Renin inhibition potency, 8 h (Plasma renin activity; tested form: 0.2H2O, 0.1iPr2O): 80%; Renin inhibition potency, Max (Plasma renin activity; tested form: 0.2H2O, 0.1iPr2O): 100%; Renin inhibition potency, Mean (Plasma renin activity; tested form: 0.2H2O, 0.1iPr2O): 97%

The next lines start with results.

Row | IC50 [1, 2] | Renin inhibition potency, Max (Plasma renin activity) | Renin inhibition potency, Mean (Plasma renin activity) | Renin inhibition potency, 4 h (Plasma renin activity) | Renin inhibition potency, 6 h (Plasma renin activity) | Renin inhibition potency, 8 h (Plasma renin activity) | Renin inhibition potency, 24 h (Plasma renin activity) | Structure (SMILES) | further results
10 | 7.52 nM | 46% | 28% | 12% | – | – | – | O=C(C[C@H](O)[C@H](CC1CCCCC1)NC(=O)[C@H](Cc1cscn1)NC(=O)[C@@H](CC(=O)N1CCOCC1)Cc1cccc2ccccc12)c1ccccc1 | –
11 | 1.98 nM | 98% | 88% | 88% | 63% | 33% | 0% | O=C(CN1CCOCC1)N[C@@H](Cc1cccc2ccccc12)C(=O)N[C@@H](Cc1cscn1)C(=O)N[C@@H](CC1CCCCC1)[C@@H](O)CC(=O)c1ccncc1 | –
12 | 1.78 nM | 81% | 65% | 81% | 73% | 64% | 28% | CC(C)(C)S(=O)(=O)C[C@@H](Cc1ccccc1)C(=O)N[C@@H](Cc1cscn1)C(=O)N[C@@H](CC1CCCCC1)[C@@H](O)CC(=O)c1cccc(OCCN2CCOCC2)c1 | –

Where two headings read alike, the source gives them in different places.
